# Results as given in patent US20260256919A1, “BIOENHANCERS” (priority 2022, published 2026).
# Chains of the proteins cited; added tags and fusions are not shown.
# UniProt P05177, whole entry: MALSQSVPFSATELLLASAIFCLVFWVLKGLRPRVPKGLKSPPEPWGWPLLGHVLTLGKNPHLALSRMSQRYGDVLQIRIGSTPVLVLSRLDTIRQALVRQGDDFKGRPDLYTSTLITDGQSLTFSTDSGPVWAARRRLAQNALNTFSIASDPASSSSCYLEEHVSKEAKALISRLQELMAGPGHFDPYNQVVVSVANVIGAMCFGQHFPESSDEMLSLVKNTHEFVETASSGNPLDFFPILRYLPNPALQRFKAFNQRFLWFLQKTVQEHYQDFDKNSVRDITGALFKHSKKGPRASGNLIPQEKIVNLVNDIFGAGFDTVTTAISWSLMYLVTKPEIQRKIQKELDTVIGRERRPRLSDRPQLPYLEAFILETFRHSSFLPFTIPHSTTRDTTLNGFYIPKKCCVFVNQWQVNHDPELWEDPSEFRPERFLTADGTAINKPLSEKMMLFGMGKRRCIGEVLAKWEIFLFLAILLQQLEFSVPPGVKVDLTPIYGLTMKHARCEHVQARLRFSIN
# Biological target: CYP1A2 (Homo sapiens, UniProt P05177)
# Conditions: microsomes
substance,measurement,value
phenylcapsaicyn,IC50,670 nM
